## Antibody variant affinities, Ab-14 heavy chain, assay 1

Source: Engelhart et al. 2022 (doi:10.1038/s41597-022-01779-4), MIT Lincoln Laboratory and A-Alpha Bio; data file from the FLAb repository.

Antigen: PDVDLGDISGINAS, a 14-residue peptide of the SARS-CoV-2 spike HR2 region.

Parent: Ab-14, a human scFv built as VH, a (GGGGS)3 linker, VL. Only the CDRs of the heavy chain vary.
VH: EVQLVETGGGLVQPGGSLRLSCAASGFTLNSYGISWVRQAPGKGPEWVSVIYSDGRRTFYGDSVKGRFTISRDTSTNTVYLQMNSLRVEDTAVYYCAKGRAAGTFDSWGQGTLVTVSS
VL: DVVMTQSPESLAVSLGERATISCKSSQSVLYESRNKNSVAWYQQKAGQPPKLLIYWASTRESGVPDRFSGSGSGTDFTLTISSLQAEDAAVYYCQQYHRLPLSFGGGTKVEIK

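Phage display of a naive human antibody library on the peptide gave the parent. The library (AAYL49) carries one to three amino acid substitutions per variant, with no insertions or deletions. Affinity was read by AlphaSeq, a pooled yeast mating assay with surface-displayed partners. After mating in shaken culture at 30 °C for 16 h, diploids were selected and their barcode pairs sequenced. Read counts were normalised to the haploid input and turned into Kd by a linear fit to BCL2-family pairs of known affinity, for each replicate. Mating was done three times.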

Sequences are complete VH domains.
The read-out is the apparent dissociation constant on a log10 scale (nM): the lower, the stronger.
Where no diploid with the target was found in that replicate, the entry reads "ND": below detection, most likely a poor binder, though not proof of it.
In this assay the parent's reference entry averaged 0.65; its copy inside this library read 4.11 (one replicate of three).
Three control strains display no target. For library AAYL49, 15% of the pairings with them gave a signal, with a median of 4.06 and one signal in twenty below 2.83, so weak values seen in few replicates may be background. For each scFv, signals with the empty controls are counted beside the result, with their mean in brackets.

| # | VH | log10 Kd, replicates | signal with controls |
|---|---|---|---|
| 1 | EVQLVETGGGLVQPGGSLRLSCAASGFTLNKYGISWVRQAPGKGPEWVSVIYSDGRRTHYEDSVKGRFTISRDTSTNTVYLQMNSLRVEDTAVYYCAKGRAAGTFDSWGQGTLVTVSS | 1.76 1.73 1.82 | 0/9 |
| 2 | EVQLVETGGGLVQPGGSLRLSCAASGFTINSYGISWVRQAPGKGPEWVSVIYSDIRRTFYVDSVKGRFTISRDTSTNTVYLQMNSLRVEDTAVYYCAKGRAAGTFDSWGQGTLVTVSS | ND ND ND | 0/9 |
| 3 | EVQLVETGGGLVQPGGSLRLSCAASGFTLNSYGISWVRQAPGKGPEWVSKIYSDGRRTFYGDSVEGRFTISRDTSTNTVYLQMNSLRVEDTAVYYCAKGSAAGTFDSWGQGTLVTVSS | ND ND 4.39 | 1/9 (3.43) |
| 4 | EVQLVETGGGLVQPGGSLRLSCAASGFTLNSYGISWVRQAPGKGPEWVSDIHSDGRRTFYGDTVKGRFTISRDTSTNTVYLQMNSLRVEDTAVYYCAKGRAAGTFDSWGQGTLVTVSS | ND ND ND | 3/9 (3.92) |
| 5 | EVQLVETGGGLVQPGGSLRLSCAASGFTINSYGISWVRQAPGKGPEWVSVIYSDGRETFYGDSVKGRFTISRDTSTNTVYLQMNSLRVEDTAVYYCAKGRAAGTHDSWGQGTLVTVSS | ND ND ND | 1/9 (3.97) |
| 6 | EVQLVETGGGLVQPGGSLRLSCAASGFTLNSQGISWVRQAPGKGPEWVSVIYSDGRRTFYGDSVKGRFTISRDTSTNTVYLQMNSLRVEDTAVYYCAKGRMAGTFDSWGQGTLVTVSS | 2.06 1.44 1.46 | 0/9 |
| 7 | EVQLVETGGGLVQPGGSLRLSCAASGFTLNSYGISWVRQAPGKGPEWVSVIYSDGRRCFYCDSYKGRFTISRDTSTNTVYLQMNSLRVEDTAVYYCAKGRAAGTFDSWGQGTLVTVSS | ND ND ND | 0/9 |
| 8 | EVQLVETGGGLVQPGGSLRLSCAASGFTLNSYGISWVRQAPGKGPEWVSMIYSKGRRTFYGCSVKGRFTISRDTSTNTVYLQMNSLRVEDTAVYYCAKGRAAGTFDSWGQGTLVTVSS | ND ND ND | 0/9 |
| 9 | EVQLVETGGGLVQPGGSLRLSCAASKFTLNHYGISWVRQAPGKGPEWVSVIYSDGRRQFYGDSVKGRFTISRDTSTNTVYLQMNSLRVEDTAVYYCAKGRAAGTFDSWGQGTLVTVSS | 2.64 2.63 2.67 | 2/9 (4.43) |
| 10 | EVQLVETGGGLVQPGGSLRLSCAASGFTLNSYGISWVRQAPGKGPEWVSVIYSDGRCTFYISSVKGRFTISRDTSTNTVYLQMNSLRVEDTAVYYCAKGRAAGTFDSWGQGTLVTVSS | ND 4.87 3.52 | 4/9 (4.16) |
| 11 | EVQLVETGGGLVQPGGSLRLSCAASGFTLNSYGISWVRQAPGKGPEWVSVIYSDGRRTFYGDSVKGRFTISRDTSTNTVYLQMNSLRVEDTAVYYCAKGRAAGNWDSWGQGTLVTVSS | ND ND ND | 0/9 |
| 12 | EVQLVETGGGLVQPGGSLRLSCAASGFTLNSYGISWVRQAPGKGPEWVSVLYSDGRRTFAGSSVKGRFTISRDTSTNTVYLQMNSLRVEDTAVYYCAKGRAAGTFDSWGQGTLVTVSS | ND ND ND | 0/9 |
| 13 | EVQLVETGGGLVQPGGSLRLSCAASGFTLTSYGISWVRQAPGKGPEWVSVCYSDGRRTFYGDSVKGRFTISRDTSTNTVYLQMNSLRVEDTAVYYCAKGRAAGTFDSWGQGTLVTVSS | 5.15 ND 3.99 | 1/9 (2.19) |
| 14 | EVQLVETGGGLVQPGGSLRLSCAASGFTLNSYGISWVRQAPGKGPEWVSVIYSDGRRYFYYDSVKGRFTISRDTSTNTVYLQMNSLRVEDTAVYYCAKGRAWGTFDSWGQGTLVTVSS | ND ND 3.16 | 1/9 (4.78) |
| 15 | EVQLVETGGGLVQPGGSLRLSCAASGFTLNSYGKSWVRQAPGKGPEWVSVIYSDARRTHYGDSVKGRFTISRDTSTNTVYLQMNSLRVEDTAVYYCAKGRAAGTFDSWGQGTLVTVSS | ND 4.01 ND | 2/9 (4.33) |
| 16 | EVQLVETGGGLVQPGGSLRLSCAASGFTLWSYGISWVRQAPGKGPEWVSVIYTQGRRTFYGDSVKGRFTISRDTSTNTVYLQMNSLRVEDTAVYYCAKGRAAGTFDSWGQGTLVTVSS | ND ND ND | 0/9 |
| 17 | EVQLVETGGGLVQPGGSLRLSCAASGFTLNSYGIGWVRQAPGKGPEWVSGIYSDGRRTFYGDRVKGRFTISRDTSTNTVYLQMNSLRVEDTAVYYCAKGRAAGTFDSWGQGTLVTVSS | ND ND ND | 0/9 |
| 18 | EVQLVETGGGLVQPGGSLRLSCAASGFTLNSYGISWVRQAPGKGPEWVSVIYSSGRRTFYGDSVKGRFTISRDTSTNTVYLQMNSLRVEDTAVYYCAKGRRAGTFDHWGQGTLVTVSS | ND ND 3.39 | 1/9 (3.60) |
| 19 | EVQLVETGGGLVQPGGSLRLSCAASGFTLNSDDISWVRQAPGKGPEWVSVIYSDGRRLFYGDSVKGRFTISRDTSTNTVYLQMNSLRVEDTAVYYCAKGRAAGTFDSWGQGTLVTVSS | ND ND ND | 0/9 |
| 20 | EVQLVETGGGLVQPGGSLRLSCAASGFTLNSYGISWVRQAPGKGPEWVSVIYSDGRATFYGDSCKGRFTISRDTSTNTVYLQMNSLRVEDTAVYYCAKGRAAGTFDRWGQGTLVTVSS | 4.17 3.70 5.57 | 4/9 (4.48) |
| 21 | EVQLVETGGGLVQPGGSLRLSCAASGFTMNSYGISWVRQAPGKGPEWVSVIYSDGRRTRYGDSKKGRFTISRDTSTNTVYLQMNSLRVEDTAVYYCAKGRAAGTFDSWGQGTLVTVSS | 5.69 4.14 ND | 0/9 |